Protein sequences, listed by entry. Tags and fused reporters are not part of them.
UniProt Q8NER1, whole entry: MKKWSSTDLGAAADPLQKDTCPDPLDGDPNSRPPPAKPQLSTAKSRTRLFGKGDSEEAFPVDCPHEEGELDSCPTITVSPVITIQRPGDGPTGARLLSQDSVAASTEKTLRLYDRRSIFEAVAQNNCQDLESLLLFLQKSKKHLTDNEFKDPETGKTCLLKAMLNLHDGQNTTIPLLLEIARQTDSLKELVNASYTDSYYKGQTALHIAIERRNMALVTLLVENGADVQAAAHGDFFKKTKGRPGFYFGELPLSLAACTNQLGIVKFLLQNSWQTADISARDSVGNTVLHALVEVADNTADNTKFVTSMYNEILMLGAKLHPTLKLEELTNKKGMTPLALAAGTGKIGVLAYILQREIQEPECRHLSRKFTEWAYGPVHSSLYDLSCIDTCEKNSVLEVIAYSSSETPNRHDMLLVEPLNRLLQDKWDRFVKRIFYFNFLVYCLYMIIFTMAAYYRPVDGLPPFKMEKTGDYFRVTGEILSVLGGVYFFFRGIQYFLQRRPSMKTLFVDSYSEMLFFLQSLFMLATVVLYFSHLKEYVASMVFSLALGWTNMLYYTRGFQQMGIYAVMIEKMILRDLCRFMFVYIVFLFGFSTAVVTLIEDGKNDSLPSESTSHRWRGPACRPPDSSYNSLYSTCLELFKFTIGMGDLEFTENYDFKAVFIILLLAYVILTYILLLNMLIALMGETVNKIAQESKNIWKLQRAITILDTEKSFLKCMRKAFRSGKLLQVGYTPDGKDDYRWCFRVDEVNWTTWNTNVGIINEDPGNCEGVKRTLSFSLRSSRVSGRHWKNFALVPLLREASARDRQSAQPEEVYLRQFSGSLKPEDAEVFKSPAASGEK

In patent publication US7935702B2, “Substituted biaryl quinolin-4-ylamine analogues” (Neurogen Corporation, priority 2004, dated 2011):

Target: human capsaicin receptor (Homo sapiens, UniProt Q8NER1)
Experiment: Calcium mobilization assay, determination of antagonist activity (Example 6)
Conditions: read-out: IC50 determined as described in Example 6; cells expressing human capsaicin receptor; capsaicin at EC50
Procedure: A cDNA encoding full length human capsaicin receptor (SEQ ID NO:1, 2 or 3 of U.S. Pat. No. 6,482,611) is subcloned in the plasmid pBK-CMV (Stratagene, La Jolla, Calif.) for recombinant expression in mammalian cells.
Human embryonic kidney (HEK293) cells are transfected with the pBK-CMV expression construct encoding the full length human capsaicin receptor using standard methods. The transfected cells are selected for two weeks in media containing G418 (400 μg/ml) to obtain a pool of stably transfected cells. Independent clones are isolated from this pool by limiting dilution to obtain clonal stable cell lines for use in subsequent experiments. […]
To measure the ability of a test compound to agonize or antagonize a calcium mobilization response in cells expressing capsaicin receptors to capsaicin or other vanilloid agonist, the EC50 of the agonist capsaicin is first determined. […] Capsaicin-induced calcium mobilization is monitored using either FLUOROSKAN ASCENT (Labsystems; Franklin, Mass.) or FLIPR (fluorometric imaging plate reader system; Molecular Devices, Sunnyvale, Calif.) instruments. […] In this equation, y is the maximum fluorescence signal, x is the concentration of the agonist or antagonist (in this case, capsaicin), a is the Emax, b corresponds to the EC50 value and c is the Hill coefficient. […]

- IC50: < 1 µM
Compound: Cc1cc(F)cnc1-c1ccc2c(Nc3ncc(C(F)(F)F)cn3)ccnc2n1
